Vapor pressure values, as collected for the OPERA models

Vapor pressures (log10 mmHg) refer to near room temperature, 15 to 30 °C; higher is more volatile.
Cells with "–" have no entry in this list.

| compound | name | log vapor pressure (log10 mmHg) |
|---|---|---|
| Cc1ccc(C(=O)CC(=O)C(F)(F)F)cc1 | 4,4,4-Trifluoro-1-(4-methylphenyl)butane-1,3-dione | -2.109 |
| CCCC[N+](CC)(CCCC)CCCC.CCOS(=O)(=O)[O-] | Tributylethylammonium ethyl sulphate | -5.32 |
| Cc1ccccc1CCO | 2-Methylphenethyl alcohol | -1.846 |
| C=CCOC(=O)COc1ccccc1 | Allyl phenoxyacetate | -1.202 |
| Cn1ccnc1 | 1-Methylimidazole | -0.497 |
| CC(=O)OCC(C)OC(C)=O (configuration not stated) | Propylene glycol diacetate | -0.648 |
| CN(C=O)c1ccccc1 | Formamide, N-methyl-N-phenyl- | -1.7 |
| NC(=O)[C@@H]1CCCN1 | Prolinamide | -3.08 |
| CC[Si](ON=C(C)C)(ON=C(C)C)ON=C(C)C | – | -3.624 |
| NS(=O)(=O)c1ccccc1C(F)(F)F | 2-(Trifluoromethyl)benzenesulfonamide | -7.347 |
| CN(C)CCCO | 1-Propanol, 3-(dimethylamino)- | 0.082 |
| ClCC=Cc1ccccc1 | 3-Phenylallyl chloride | -1.696 |
| CC1OC1C (configuration not stated) | 2,3-Epoxybutane | 2.267 |
| O[C@@H](CN(Cc1ccccc1)C[C@H](O)[C@H]1CCc2cc(F)ccc2O1)[C@@H]1CCc2cc(F)ccc2O1 (relative stereo) | – | -9.929 |
| CC(C)C=NCC1(C)CC(N=CC(C)C)CC(C)(C)C1 (configuration not stated) | – | -2.907 |
| O=C=NCc1cccc(CN=C=O)c1 | 1,3-Bis(isocyanatomethyl)benzene | -3.811 |
| CCN(CC)c1ccc(N=Nc2c(C#N)cc(C)cc2C#N)c(NS(C)(=O)=O)c1 | – | -6.417 |
| O=C(c1ccc(F)cc1)c1ccc(F)cc1 | 4,4'-Difluorobenzophenone | -4.426 |
| CCCCCCCCCCCOC1O[C@@H](CO)[C@H](O)[C@@H](O)[C@@H]1O (stereo partly drawn) | Undecyl glucoside | -10.48 |
| C=CC(=O)NC(C)(C)CS(=O)(=O)[O-].[NH4+] | – | -10.26 |
| COC(F)(F)C(Cl)Cl | Methoxyflurane | 1.364 |
| C=CC(=O)OCCC[Si](OC)(OC)OC | 2-Propenoic acid, 3-(trimethoxysilyl)propyl ester | -0.813 |
| O=C(O)CCC(=O)C(=O)O | alpha-Ketoglutaric acid | -4.144 |
| CCCCN(CCO)CCO | N-Butyldiethanolamine | -2.001 |
| Cc1cc(C)cc(C(=O)Cl)c1 | Benzoyl chloride, 3,5-dimethyl- | -1.409 |
| CCCCOc1ccc(C2CCC(CCC)CC2)c(F)c1F (configuration not stated) | 1-Butoxy-2,3-difluoro-4-(4-propylcyclohexyl)benzene | -5.23 |
| CCNc1cc2[o+]c3cc(NCC)c(C)cc3c(-c3ccccc3C(=O)OCC)c2cc1C.[Cl-] | Rhodamine 6G | -12.98 |
| O=C(O)COc1ccc(Cl)c2cccnc12 | 2-[(5-Chloro-8-quinolinyl)oxy]acetic acid | -9.215 |
| CCCCCCCCCCCC(=O)N[C@@H](CCC(=O)NCCCC)C(=O)NCCCC | – | -5.881 |
| C=COCC1CCC(COC=C)CC1 (configuration not stated) | 1,4-Bis[(ethenyloxy)methyl]cyclohexane | -1.582 |
| O=C(O)c1ccccn1 | Picolinic acid | -3.676 |
| C=CC(=O)OCCOC(=O)Nc1cccc(SC)c1 | – | -4.148 |
| CNC(=O)c1cc(Cl)ccn1.Cl | – | -2.995 |
| Cn1cc(C(=O)Nc2cccc3c2C2CCC3C2=C(Cl)Cl)c(C(F)F)n1 (configuration not stated) | Benzovindiflupyr | -10.62 |
| CC1(C)[C@H]2CC=C(CCO)[C@@H]1C2 | (-)-Nopol | -1.642 |
| COC(=O)c1c(C)cc(O)c(C)c1O | Methyl 3-methylorsellinate | -4.824 |
| CC(C)OCC1CO1 (configuration not stated) | Isopropyl glycidyl ether | 0.973 |
| C=COC1CCCCC1 | (Ethenyloxy)-cyclohexane | 0.536 |
| Cc1nc(C)c(Cl)c(O)c1Cl | Clopidol | -3.183 |
| C=CC(=O)OCC(O)COC(=O)C(C)(CCC)CCCC (configuration not stated) | – | -4.078 |
| CCCCOCC(C)OC(=O)COc1nc(F)c(Cl)c(N)c1Cl (configuration not stated) | – | -7.347 |
| COC(=O)C(Cl)Cc1ccc(Cl)cc1 (configuration not stated) | Chlorfenprop-methyl | -2.156 |
| CC/C=C\CC1=C(C)CCC1=O | Jasmone | -2.043 |
| CCOC(=O)CC1(C)OCC(C)O1 (configuration not stated) | Ethyl 2,4-dimethyl-1,3-dioxolane-2-acetate | -1.227 |
| C=CC(=O)OCCCCCCCCCCCCCCCC | Hexadecyl acrylate | -5.37 |
| CCCCCCCC/C=C\CCCCCCCCNC(=O)CCCCCCCCCCCCCCC | N-Oleylpalmitic acid amide | -6.206 |
| CC(C)CCOC(=O)c1ccccc1O | Isoamyl salicylate | -1.153 |
| CC1(C)S[C@@H]2[C@H](NC(=O)[C@H](N)c3ccc(O)cc3)C(=O)N2[C@H]1C(=O)O | Amoxicillin | -11.68 |
| O=C(Nc1ccc(Cl)c(Cl)c1)c1cc(Cl)cc(Cl)c1O | 3,5-Dichlorosalicyl-3,4-dichloroanilide | -9.523 |
| CCCCC(CC)COC(=O)c1ccc([N+](=O)[O-])cc1 (configuration not stated) | 2-Ethylhexyl 4-nitrobenzoate | -5.62 |
| C=CCOC(=O)C(C)(C)O | allyl 2-hydroxyisobutyrate | -0.052 |
| O=C(OCCOCCOCCOC(=O)c1ccccc1)c1ccccc1 | Ethylenebis(oxyethylene) dibenzoate | -6.721 |
| Nc1c(/N=N/c2ccc(S(=O)(=O)[O-])cc2S(=O)(=O)[O-])cc(S(=O)(=O)[O-])c2cc(S(=O)(=O)[O-])c(/N=N/c3ccc([N+](=O)[O-])cc3S(=O)(=O)[O-])c(O)c12.[Na+].[Na+].[Na+].[Na+].[Na+] | – | -9.837 |

The first 4 entries again:

{"smiles": "Cc1ccc(C(=O)CC(=O)C(F)(F)F)cc1", "name": "4,4,4-Trifluoro-1-(4-methylphenyl)butane-1,3-dione", "log vapor pressure (log10 mmHg)": "-2.109"}
{"smiles": "CCCC[N+](CC)(CCCC)CCCC.CCOS(=O)(=O)[O-]", "name": "Tributylethylammonium ethyl sulphate", "log vapor pressure (log10 mmHg)": "-5.32"}
{"smiles": "Cc1ccccc1CCO", "name": "2-Methylphenethyl alcohol", "log vapor pressure (log10 mmHg)": "-1.846"}
{"smiles": "C=CCOC(=O)COc1ccccc1", "name": "Allyl phenoxyacetate", "log vapor pressure (log10 mmHg)": "-1.202"}

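The OPERA project collected these measurements from public sources as training and test data for property models. A listed value is a point estimate from one report or more. Method, purity and exact conditions of the single measurements are not given. Where a salt, mixture or single isomer is drawn, the source does not say that exactly this form was tested. Unmarked limits or estimates from the upstream databases cannot be ruled out.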

From the experimental data distributed with OPERA 2.9.